Measured values reported in patent publication US12486266B2, “Crystalline form of JAK inhibitor and application thereof” (Zhuhai United Laboratories CO., LTD., priority 2020, dated 2025).

Legend:
[1] = tested on: collagen induced arthritis (CIA) in mice; conditions: mouse, in vivo
[2] = tested on: adjuvant induced arthritis (AIA) rat model; conditions: in vivo, po

O=C(Nc1nc2cccc(C3CCC4(CC3)CN(C(=O)[C@@H]3CC3(F)F)C4)n2n1)C1CC1
effect on the body weight of mice [1]: little effect on the body weight
tolerance of rats (body weight course) [2]: good tolerance
